Results: US6413935

Molecular target: mouse class II IA^s, purified from LS102.9 cells (mouse)
Assay: 125I-peptide inhibition, purified class II

IC50: 1060 nM
Binder: AKFVAAWTLKAAA (modifications not checked) [1024.03]
